17 compounds from patent EP4831173A1, “TYK2 INHIBITOR AND USE THEROF” (dated 2026) can be followed below.

By UniProt entry, the sequences of proteins in these tests, tags left out. Residues count along the entry.
UniProt P29597, whole entry: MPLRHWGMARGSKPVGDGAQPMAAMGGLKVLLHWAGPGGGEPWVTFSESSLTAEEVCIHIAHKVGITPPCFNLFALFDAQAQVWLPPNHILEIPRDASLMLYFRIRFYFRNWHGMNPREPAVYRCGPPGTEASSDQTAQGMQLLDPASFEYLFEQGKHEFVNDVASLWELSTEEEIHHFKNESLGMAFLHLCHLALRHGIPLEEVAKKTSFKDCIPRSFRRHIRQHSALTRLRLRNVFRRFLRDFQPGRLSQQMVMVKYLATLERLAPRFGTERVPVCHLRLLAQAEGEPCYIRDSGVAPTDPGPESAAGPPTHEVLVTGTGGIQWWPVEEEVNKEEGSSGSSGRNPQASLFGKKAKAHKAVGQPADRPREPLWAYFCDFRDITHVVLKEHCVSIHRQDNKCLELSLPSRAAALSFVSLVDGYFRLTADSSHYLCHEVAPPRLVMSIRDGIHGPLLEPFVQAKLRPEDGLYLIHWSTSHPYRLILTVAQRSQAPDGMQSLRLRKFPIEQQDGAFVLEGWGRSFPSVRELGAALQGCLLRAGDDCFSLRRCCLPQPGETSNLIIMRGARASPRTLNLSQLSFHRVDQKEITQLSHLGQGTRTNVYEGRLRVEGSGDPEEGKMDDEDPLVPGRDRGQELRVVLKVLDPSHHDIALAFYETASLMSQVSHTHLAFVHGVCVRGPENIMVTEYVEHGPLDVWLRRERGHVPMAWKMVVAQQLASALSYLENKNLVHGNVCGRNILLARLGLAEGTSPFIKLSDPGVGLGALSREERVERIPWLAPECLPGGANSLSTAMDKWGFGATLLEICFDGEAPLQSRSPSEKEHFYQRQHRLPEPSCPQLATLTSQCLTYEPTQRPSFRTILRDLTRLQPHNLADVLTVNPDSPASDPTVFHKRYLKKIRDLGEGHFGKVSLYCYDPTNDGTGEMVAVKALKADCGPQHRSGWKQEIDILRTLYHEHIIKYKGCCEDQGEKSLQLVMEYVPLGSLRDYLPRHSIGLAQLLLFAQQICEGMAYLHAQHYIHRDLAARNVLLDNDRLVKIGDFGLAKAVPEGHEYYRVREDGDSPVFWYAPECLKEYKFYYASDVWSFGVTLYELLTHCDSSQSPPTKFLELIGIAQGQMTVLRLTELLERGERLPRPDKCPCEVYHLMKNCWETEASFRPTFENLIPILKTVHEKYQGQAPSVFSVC
UniProt P29597, 589-875 limits assumed: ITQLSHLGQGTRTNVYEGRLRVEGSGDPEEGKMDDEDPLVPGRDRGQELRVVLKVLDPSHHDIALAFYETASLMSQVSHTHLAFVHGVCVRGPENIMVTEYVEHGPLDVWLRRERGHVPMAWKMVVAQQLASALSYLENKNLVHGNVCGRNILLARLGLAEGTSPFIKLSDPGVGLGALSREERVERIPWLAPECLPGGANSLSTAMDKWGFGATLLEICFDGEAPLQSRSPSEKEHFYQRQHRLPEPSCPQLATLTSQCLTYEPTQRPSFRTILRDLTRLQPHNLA
UniProt P23458, whole entry partner: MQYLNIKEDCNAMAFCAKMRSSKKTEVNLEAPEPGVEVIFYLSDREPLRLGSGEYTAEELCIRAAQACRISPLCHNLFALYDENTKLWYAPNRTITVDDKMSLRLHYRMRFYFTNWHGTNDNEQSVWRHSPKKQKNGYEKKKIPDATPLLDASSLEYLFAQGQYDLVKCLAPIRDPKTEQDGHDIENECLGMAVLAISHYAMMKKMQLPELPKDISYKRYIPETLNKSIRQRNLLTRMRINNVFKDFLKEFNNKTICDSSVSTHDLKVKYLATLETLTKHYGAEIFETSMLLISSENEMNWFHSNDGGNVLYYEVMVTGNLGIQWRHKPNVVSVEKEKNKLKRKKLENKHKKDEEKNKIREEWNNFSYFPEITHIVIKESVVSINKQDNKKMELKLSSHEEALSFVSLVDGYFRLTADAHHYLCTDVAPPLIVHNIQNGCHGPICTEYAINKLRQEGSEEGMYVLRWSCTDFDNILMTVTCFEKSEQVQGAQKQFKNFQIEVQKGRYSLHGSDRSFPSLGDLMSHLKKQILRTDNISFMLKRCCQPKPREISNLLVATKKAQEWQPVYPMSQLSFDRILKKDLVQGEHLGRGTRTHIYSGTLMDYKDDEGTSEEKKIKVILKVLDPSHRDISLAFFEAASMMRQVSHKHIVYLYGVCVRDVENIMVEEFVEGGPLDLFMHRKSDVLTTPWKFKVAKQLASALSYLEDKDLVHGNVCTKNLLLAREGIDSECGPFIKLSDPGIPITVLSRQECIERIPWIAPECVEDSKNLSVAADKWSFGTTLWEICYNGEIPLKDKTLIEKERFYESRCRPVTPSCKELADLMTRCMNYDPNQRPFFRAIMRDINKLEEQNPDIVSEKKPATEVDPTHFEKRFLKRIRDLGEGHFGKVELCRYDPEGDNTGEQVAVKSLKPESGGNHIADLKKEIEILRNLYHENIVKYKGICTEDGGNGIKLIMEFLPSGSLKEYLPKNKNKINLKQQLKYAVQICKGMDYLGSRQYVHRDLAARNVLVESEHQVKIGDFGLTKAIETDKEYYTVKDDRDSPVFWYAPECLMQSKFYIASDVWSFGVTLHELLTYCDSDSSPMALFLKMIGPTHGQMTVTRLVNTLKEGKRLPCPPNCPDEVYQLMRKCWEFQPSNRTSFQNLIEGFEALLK

The first assay deals with TYK2 pseudokinase domain (Homo sapiens, UniProt P29597). Briefly: TYK2 JH2 pseudokinase domain binding affinity, fluorescence polarization (BPS Bioscience inhibitor screening kit). Conditions: read-out: TYK2 JH2 IC50; polarized fluorescence, 25°C, 1 hour. The procedure: Experimental Example 1: Analysis of domain binding affinity to TYK2 pseudokinase
In order analyze the binding affinity of a test compound to the TYK2 pseudokinase domain, a polarized fluorescence-based TYK2 JH2 Pseudokinase Domain Inhibitor Screening Assay Kit (BPS bioscience) was used. The evaluation of the compound was performed according to the manufacturer's protocol, and the method thereof is as follows:
The test compound or control compound (Deucravacitnib) was serially diluted in DMSO, and then diluted 1/10 with distilled water to prepare 10x compound solution. After mixing the compound solution with Probe 1 prepared with a binding reaction buffer (JH2 binding buffer), a reaction was performed at 25°C for 10 minutes. Next, the reaction was initiated by adding a TYK2 pseudokinase domain enzyme prepared with the binding reaction buffer. The reaction was performed in a black 384-well plate at 25 °C for 1 hour. Polarized fluorescence was measured using Synergy neo (BioTek Instruments, Inc.).
In general terms: Fluorescence polarisation rises when a labelled molecule tumbles more slowly, as on binding a larger partner.
One may read the IC50 as the concentration that gives 50% inhibition. Take `CC(=O)Nc1cc2c(-c3cc(OCC#N)c(=O)n(C4(C)CCC4)n3)cn(C)c2cn1`: the IC50 is 14 nM.
The same measure, in the same setting: to `COCCOc1cc(-c2cn(C3CC3)c3cnc(NC(C)=O)cc23)nn([C@@H](C)C(F)(F)F)c1=O` belongs 16 nM; to `CC(=O)Nc1cc2c(-c3cc(N4CC(OC(C)C)C4)c(=O)n([C@@H](C)C(F)(F)F)n3)cn(C3CC3)c2cn1`, 35 nM; to `CCn1cc(-c2cc(N3CC(OC(C)C)C3)c(=O)n([C@@H](C)C(F)(F)F)n2)c2cc(NC(C)=O)ncc21`, 42 nM.
On the same count and under the same terms, next, `[2H]C([2H])([2H])C(=O)Nc1cc2c(-c3cc(N4CC(OC)C4)c(=O)n([C@@H](C)C(F)(F)F)n3)cn(C)c2cn1`: 36 nM; `CC(=O)Nc1cc2c(-c3cc(OCC(F)(F)F)c(=O)n([C@@H](C)C(F)(F)F)n3)cn(C3CC3)c2cn1`: 50 nM.
The same measure, in the same setting: next, `CCC1(n2nc(-c3cn(C4CC(C#N)C4)c4cnc(NC(C)=O)cc34)cc(C)c2=O)CCOC1` (stereo not shown): 20 nM.
For the compound `CC(=O)Nc1cc2c(-c3cc(OCC(C)C)c(=O)n(C4CCC4)n3)cn(C)c2cn1`, the IC50 came out at 14 nM.
On the same count and under the same terms, to `COC1CN(c2cc(-c3cn(CC(C)(C)F)c4cnc(NC(C)=O)cc34)nn([C@@H](C)C(F)(F)F)c2=O)C1` belongs 57 nM; to `CC(=O)Nc1cc2c(-c3cc(OCC(C)(F)F)c(=O)n([C@@H](C)C(F)(F)F)n3)cn(C(=O)C3CC3)c2cn1`, 46 nM; to `CCn1cc(-c2cc(OCC(F)F)c(=O)n([C@@H](C)C(F)(F)F)n2)c2cc(NC(=O)CO)ncc21`, 27 nM.
For `CC(C)COc1cc(-c2cn(C)c3cnc(NC(N)=O)cc23)nn(C(C)C)c1=O`, the IC50 amounted to 20 nM.
Still for that read-out and setting: next, `CCC1(n2nc(-c3cn(C)c4cnc(NC(C)=O)cc34)cc(OCC(C)C)c2=O)CCC1`: 27 nM.
Same read-out and setting: next, `CC(=O)Nc1cc2c(-c3cc(OCC(C)(F)F)c(=O)n([C@@H](C)C(F)(F)F)n3)cn(CCCC#N)c2cn1`: 24 nM; `COC1CN(c2cc(-c3cn(C)c4cnc(NC(C)=O)cc34)nn(C(C)C(F)(F)F)c2=O)C1` (stereo not shown): 89 nM; `COCC1CN(c2cc(-c3cn(C)c4cnc(NC(C)=O)cc34)nn(C3CCC3)c2=O)C1`: 33 nM.
Consider `CO[C@H]1CCN(c2cc(-c3cn(C)c4cnc(NC(C)=O)cc34)nn(C3(C)CCC3)c2=O)C1`, for which the half-inhibitory concentration (IC50) is 122 nM.

The target in another assay is TYK2/JAK1 (Homo sapiens, UniProt P29597). Description: TYK2/JAK1 cell activity by IFNα2B stimulation, SEAP reporter in HEK-blue IFNα/β cells. To be noted: HEK-blue IFNα/β cell line, human IFNα2B 1 U/mL, 24 hours, SEAP absorbance at 630 nm. The procedure: Experimental Example 3: Analysis of TYK2/JAKI cell activity by IFNα2B stimulation
An inhibition effect of TYK2/JAK1 activity of the test compound was analyzed using HEK-blue IFNα/β cell line (InvivoGen) that secretes SEAP (Secreted embryonic alkaline phosphatase) depending on the degree of cell stimulation. Cell culture and evaluation were performed according to the manufacturer's recommendations, and the method thereof is as follows: Cells cultured in a growth medium (Dulbecco's Modified Eagle Medium, 10% Fetal bovine serum, 1% Penicillin-Streptomycin, 100 ug/mL Normocin, 10 mg/mL Blasticidin, […] Zeocin) were collected and resuspended in a test medium (DMEM, 10% FBS, 1% Penicillin-Streptomycin), and 3.5x10^4 cells (160 uL) were dispensed into each well of a 96-well plate. After culturing for 24 hours in a 37°C CO2 incubator, 20 uL of a test compound or control compound (Deucravacitinib) diluted in the test medium was added, and then incubated at 37°C for 1 hour and 30 minutes. Next, 20 uL of human IFNα2B recombinant protein (PBL assay science) prepared with the test medium was added to each well (final concentration 1 U/mL) and then incubated at 37°C for 24 hours. 20 uL and 180 uL of cell supernatant were mixed with a QUANTI-blue reagent (InvivoGen) and then reacted at 37°C for 20-30 minutes. An absorbance at 630 nm was measured using Synergy neo (BioTek Instruments, Inc.). […] [Table 3] Result of TYK2/JAK1 cell activity by IFNα2B stimulation test
As to `CC(=O)Nc1cc2c(-c3cc(OCC#N)c(=O)n(C4(C)CCC4)n3)cn(C)c2cn1`, the IC50 lay within 50 to 500 nM.
Same read-out and setting: to `COCCOc1cc(-c2cn(C3CC3)c3cnc(NC(C)=O)cc23)nn([C@@H](C)C(F)(F)F)c1=O` belongs less than 50 nM; to `CC(=O)Nc1cc2c(-c3cc(N4CC(OC(C)C)C4)c(=O)n([C@@H](C)C(F)(F)F)n3)cn(C3CC3)c2cn1`, less than 50 nM.
Same read-out and setting: to `CCn1cc(-c2cc(N3CC(OC(C)C)C3)c(=O)n([C@@H](C)C(F)(F)F)n2)c2cc(NC(C)=O)ncc21` belongs less than 50 nM.
Still for that read-out and setting: to `[2H]C([2H])([2H])C(=O)Nc1cc2c(-c3cc(N4CC(OC)C4)c(=O)n([C@@H](C)C(F)(F)F)n3)cn(C)c2cn1` belongs less than 50 nM; to `CC(=O)Nc1cc2c(-c3cc(OCC(F)(F)F)c(=O)n([C@@H](C)C(F)(F)F)n3)cn(C3CC3)c2cn1`, less than 50 nM.
`CCC1(n2nc(-c3cn(C4CC(C#N)C4)c4cnc(NC(C)=O)cc34)cc(C)c2=O)CCOC1` (stereo not shown): the half-maximal inhibitory concentration (IC50) is less than 50 nM.
The same measure, in the same setting: to `CC(=O)Nc1cc2c(-c3cc(OCC(C)C)c(=O)n(C4CCC4)n3)cn(C)c2cn1` belongs less than 50 nM; to `COC1CN(c2cc(-c3cn(CC(C)(C)F)c4cnc(NC(C)=O)cc34)nn([C@@H](C)C(F)(F)F)c2=O)C1`, 50 to 500 nM; to `CC(=O)Nc1cc2c(-c3cc(OCC(C)(F)F)c(=O)n([C@@H](C)C(F)(F)F)n3)cn(C(=O)C3CC3)c2cn1`, 50 to 500 nM.
Same read-out and setting: to `CCn1cc(-c2cc(OCC(F)F)c(=O)n([C@@H](C)C(F)(F)F)n2)c2cc(NC(=O)CO)ncc21` belongs less than 50 nM.
Same read-out and setting: to `CC(C)COc1cc(-c2cn(C)c3cnc(NC(N)=O)cc23)nn(C(C)C)c1=O` belongs less than 50 nM; to `CCC1(n2nc(-c3cn(C)c4cnc(NC(C)=O)cc34)cc(OCC(C)C)c2=O)CCC1`, less than 50 nM; to `CC(=O)Nc1cc2c(-c3cc(OCC(C)(F)F)c(=O)n([C@@H](C)C(F)(F)F)n3)cn(CCCC#N)c2cn1`, less than 50 nM.
`COC1CN(c2cc(-c3cn(C)c4cnc(NC(C)=O)cc34)nn(C(C)C(F)(F)F)c2=O)C1` (stereo not shown): the concentration for half-maximal inhibition (IC50) was less than 50 nM.
Same read-out and setting: to `COCC1CN(c2cc(-c3cn(C)c4cnc(NC(C)=O)cc34)nn(C3CCC3)c2=O)C1` belongs less than 50 nM.
For the compound `CO[C@H]1CCN(c2cc(-c3cn(C)c4cnc(NC(C)=O)cc34)nn(C3(C)CCC3)c2=O)C1`, the half-inhibitory concentration (IC50) lay within 50 to 500 nM.
